# Assay results as given in US4499091A, “1-Amino (or substituted amino)-1,4-dihydro-4-oxo-6-fluoro-7-heterylquinoline-3-carboxylic acids and their use as antibacterial agents” (Sterling Drug Inc., priority 1983, dated 1985).
# Assays:
# [1] = system: Staphylococcus aureus Smith; assay: in vitro antibacterial activity, serial dilution (MIC); format: cell-based; details: 18-20 hours static incubation, read-out: Minimal Inhibitory Concentration (MIC)
# Experimental: (§1) The in vitro antibacterial activity of the compounds of the invention was determined by conventional serial dilution procedures. Bacterial cultures were grown in tryptose phosphate broth or brain heart infusion broth (containing heat-inactivated normal horse serum for tests with S. pyogenes) overnight at 37° C. and subsequently diluted in double strength broth to provide bacterial inocula of about 2×10^5 cells/ml. Aqueous solutions of the compounds of the invention were prepared by dissolving the free acid form in 0.5N sodium hydroxide. The solutions were diluted with sterile distilled water to 1000 mcg/ml of compound in terms of the free acid. Serial two-fold dilutions of the compound stock solutions were prepared in water and 0.5 ml of each dilution was transferred to sets of tubes, one set for each bacterial inoculum.
# [2] = system: Streptococcus pyogenes C203; assay: as above; format: cell-based; details: 18-20 hours static incubation, read-out: Minimal Inhibitory Concentration (MIC)
# Experimental: as §1
compound,measurement,setting,value
"CNn1cc(C(=O)O)c(=O)c2cc(F)c(N3CCN(C)CC3)cc21 [Example 1, 6-Fluoro-1,4-dihydro-1-methylamino-7-(4-methyl-1-piperazinyl)-4-oxo-3-quinolinecarboxylic acid]",MIC,[1],3.9 µg/mL
same,MIC,[2],7.8 µg/mL
